Key:
Format in all cases: cell-based
SYK(S550Y)-NL = SYK(S550Y)-NL (Homo sapiens, UniProt P43405, S550Y); assay: NanoBRET assay in digitonin permeabilized HEK293 cells, SYK(S550Y)-NL; design: host or cells: HEK293; conditions: fixed concentration of tracer 8, average ± SEM, read-out: IC50, SYK(variant)-NL S550Y
SYK(WT)-NL = target: T1, SYK(WT)-NL (Homo sapiens, UniProt P43405); assay: NanoBRET assay in digitonin permeabilized HEK293 cells, SYK(WT)-NL; conditions: fixed concentration of tracer 8, average ± SEM, read-out: IC50, SYK(variant)-NL WT
T1 construct: SYK tracers enable BRET with full-length SYK(WT) after digitonin permeabilization; host or cells: HEK293

SYK(S550F)-NL = SYK(S550F)-NL (Homo sapiens, UniProt P43405, S550F); assay: NanoBRET assay in digitonin permeabilized HEK293 cells, SYK(S550F)-NL; design: host or cells: HEK293; conditions: fixed concentration of tracer 8, average ± SEM, read-out: IC50, SYK(variant)-NL S550F

IC50 (SYK(S550Y)-NL): 25.6 ± 1.9 µM
IC50 (SYK(WT)-NL): 16.8 ± 0.4 µM
IC50 (SYK(S550F)-NL): 69.8 ± 1 µM
Substance: rATP
